According to patent publication US20070015913A1, “Mrp3 genes and uses thereof” (published 2007):

Test system: MCF-7 cells stably transfected with MRP3s1/Bsd
Assay: MTS/MTT assays of drug resistance of MCF-7 cells stably transfected with MRP3s1 expression vector
Conditions: MRP3s1/Bsd-transfected MCF-7 clone vs MCF-7 cells stably transfected with empty pcDNA/Bsd control vector

## 4-hydroxycyclophosphamide
  resistance of MRP3s1-expressing clone relative to control: 3-4 times
